# Reference: ChEMBL document CHEMBL3992546, “Discovery and optimization of benzimidazole derivatives as a novel chemotype of farnesoid X receptor (FXR) antagonists” (Bioorg Med Chem, 2017)
# Target: T1, Bile acid receptor (Homo sapiens) (UniProt Q96RI1)
# T1 sequence (whole entry): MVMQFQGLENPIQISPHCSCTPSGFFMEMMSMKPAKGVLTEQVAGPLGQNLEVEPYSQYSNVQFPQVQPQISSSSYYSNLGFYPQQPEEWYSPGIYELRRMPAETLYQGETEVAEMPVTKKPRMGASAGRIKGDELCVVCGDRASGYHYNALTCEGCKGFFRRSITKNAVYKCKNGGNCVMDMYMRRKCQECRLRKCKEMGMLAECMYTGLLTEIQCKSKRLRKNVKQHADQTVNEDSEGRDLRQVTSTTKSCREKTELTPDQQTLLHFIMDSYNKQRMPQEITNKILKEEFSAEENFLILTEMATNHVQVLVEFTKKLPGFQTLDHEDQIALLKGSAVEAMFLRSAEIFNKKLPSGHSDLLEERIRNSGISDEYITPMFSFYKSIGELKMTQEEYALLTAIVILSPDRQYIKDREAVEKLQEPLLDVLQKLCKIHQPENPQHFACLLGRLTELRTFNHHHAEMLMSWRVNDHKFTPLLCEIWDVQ
# Assay: Potency index, ratio of (Z)-guggulsterone IC50 to compound IC50 for inhibition of GW4064-induced fluorecein-labeled SRC2-2 coactivator recruitment in GST-tagged FXR LBD (unknown origin) by Lanthascreen TR-FRET assay
structure (smiles),measurement,value
C[C@@H](c1nc2ccc(C(=O)O)cc2n1C)N1C(=O)CN(c2ccc(Oc3ccccc3)cc2)C1=O,Ratio IC50,4.3
